Measured values taken from patent US9403830B2, “Inhibitors of leukotriene production” (Boehringer Ingelheim International GmbH, priority 2012, dated 2016).

By UniProt entry, the sequences of proteins in these tests, tags left out.
UniProt P09960, whole entry: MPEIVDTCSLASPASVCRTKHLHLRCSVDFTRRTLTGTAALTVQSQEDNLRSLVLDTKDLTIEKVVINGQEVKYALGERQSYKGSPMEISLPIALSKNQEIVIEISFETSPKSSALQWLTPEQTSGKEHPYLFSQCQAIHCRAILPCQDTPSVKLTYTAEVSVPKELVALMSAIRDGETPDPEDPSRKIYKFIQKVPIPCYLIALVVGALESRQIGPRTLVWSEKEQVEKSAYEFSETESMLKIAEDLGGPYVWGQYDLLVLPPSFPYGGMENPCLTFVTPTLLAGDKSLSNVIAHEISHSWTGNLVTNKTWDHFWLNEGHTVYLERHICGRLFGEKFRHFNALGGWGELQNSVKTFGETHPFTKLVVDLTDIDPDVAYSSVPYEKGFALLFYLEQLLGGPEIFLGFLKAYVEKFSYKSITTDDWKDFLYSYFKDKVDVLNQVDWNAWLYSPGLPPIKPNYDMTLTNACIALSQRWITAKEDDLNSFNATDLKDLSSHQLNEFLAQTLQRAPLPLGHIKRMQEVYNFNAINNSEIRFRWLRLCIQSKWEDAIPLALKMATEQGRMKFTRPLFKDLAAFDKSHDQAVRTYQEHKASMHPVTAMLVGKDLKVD

Tests used:
human LTA4 hydrolase = human LTA4 hydrolase (Homo sapiens, UniProt P09960); test: LTA4H Enzyme assay (peptidase, Arg-AMC cleavage); conditions: read-out: Peptidase IC50; LTA4H enzyme 1 nM, Arg-AMC substrate 50 μM, room temperature 1 h, fluorescence 380/460 nm
Procedure: The compounds of the invention are assessed for the ability to interact with human LTA4 hydrolase in an enzymatic assay that measures the ability of the enzyme to cleave the peptide bond of arginyl-aminomethylcoumarin (Arg-AMC). LTA4H Enzyme (1 nM final), Arg-AMC substrate (50 μM final), and compound are combined in a reaction buffer (50 mM Tris-HCl (pH 7.5), 100 mM KCl, 0.5% bovine serum albumin) at room temperature for 1 h. The formation of product is assessed by measuring the fluorescence of aminomethylcoumarin product (excitation wavelength 380 nm/emission wavelength 460 nm). In general, the preferred potency range (IC50) of compounds in the LTA4H Enzyme assay is between 0.1 nM to 10 μM, the more preferred potency range is 0.1 nM to 0.1 μM, and the most preferred potency range is 0.1 nM to 10 nM.

[1] = test system: LTB4 synthesis in human whole blood; test: human whole blood (HWB) assay, inhibition of LTB4 production; conditions: read-out: IC50 values of LTB4 production inhibition assay in human whole blood; heparinized human whole blood, calcimycin 20 μM stimulation, plasma LTB4
Procedure: The compounds of the invention are additionally tested in a human whole blood (HWB) assay to determine their ability to inhibit the synthesis of LTB4 in a cellular system. Compounds are combined with heparinized human whole blood and incubated for 15 minutes at 37° C. Calcimycin (20 μM final, prepared in phosphate-buffered saline, pH 7.4) is then added and the mixture is incubated for another 30 minutes at 37° C. The samples are centrifuged for 5 min at low speed (1500×g) and the plasma layer is removed. Plasma LTB4 concentrations are then measured using an antibody-based homogenous time-resolved fluorescence method (CisBio, Bedford, Mass.). In general, the preferred potency range (IC50) of compounds in the HWB assay is between 10 nM to 10 μM, the more preferred potency range is 10 nM to 1 μM, and the most preferred potency range is 10 nM to 100 nM.

IC50 (human LTA4 hydrolase) [µM]	IC50 [1] [µM]	Compound
0.00038	0.11	CC(=O)N[C@@H]1CCN(CCn2ncc3cc(Oc4ccc(-c5ccn[nH]5)cc4)ccc32)C1
0.00023	0.13	CC(=O)NC1CCN(CCn2ncc3cc(Oc4ccc(-c5ccn[nH]5)cc4)ccc32)CC1
0.00061	0.19	COCC(=O)NC1CCN(CCn2ncc3cc(Oc4ccc(-c5ccn[nH]5)cc4)ccc32)CC1

Compound	IC50 (human LTA4 hydrolase) [µM]	IC50 [1] [µM]
O=C1CCCN1C1CCN(CCn2ncc3cc(Oc4ccc(-c5ccn[nH]5)cc4)ccc32)CC1	0.00033	0.14
